Laboratory results reported in PMC2838185 (Chemical biology & drug design, 2009).

Biological target: T1, C. glabrata DHFR (CgDHFR) (Candida glabrata, UniProt Q6FPH0)
T1 sequence (Q6FPH0 1-217): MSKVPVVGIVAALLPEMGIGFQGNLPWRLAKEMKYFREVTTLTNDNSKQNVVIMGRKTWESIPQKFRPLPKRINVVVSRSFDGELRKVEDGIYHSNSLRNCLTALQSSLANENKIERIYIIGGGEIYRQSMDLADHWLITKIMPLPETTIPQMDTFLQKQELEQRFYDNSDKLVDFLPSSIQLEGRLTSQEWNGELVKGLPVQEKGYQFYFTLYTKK
Assay type: biochemical
Settings: Table 1; human DHFR over CgDHFR

SMILES: COc1ccc(-c2cc(OC)cc(C(C)C#Cc3c(C)nc(N)nc3N)c2)cc1 (stereo not shown) [Compound 25, 2,4-diamino-5-[3-(3-methoxy-5-(4-methoxyphenyl)phenyl)but-1-ynyl]-6-methylpyrimidine]
- Selectivity, IC50 (h)/IC50 (Cg): 28
